Earlier results, collected in article PMC3974845 (International journal of peptide research and therapeutics, 2013).
Where two headings read alike, the source gives them in different places.

By UniProt entry, the sequences of proteins in these tests, tags left out.
UniProt P40763, whole entry, species assumed: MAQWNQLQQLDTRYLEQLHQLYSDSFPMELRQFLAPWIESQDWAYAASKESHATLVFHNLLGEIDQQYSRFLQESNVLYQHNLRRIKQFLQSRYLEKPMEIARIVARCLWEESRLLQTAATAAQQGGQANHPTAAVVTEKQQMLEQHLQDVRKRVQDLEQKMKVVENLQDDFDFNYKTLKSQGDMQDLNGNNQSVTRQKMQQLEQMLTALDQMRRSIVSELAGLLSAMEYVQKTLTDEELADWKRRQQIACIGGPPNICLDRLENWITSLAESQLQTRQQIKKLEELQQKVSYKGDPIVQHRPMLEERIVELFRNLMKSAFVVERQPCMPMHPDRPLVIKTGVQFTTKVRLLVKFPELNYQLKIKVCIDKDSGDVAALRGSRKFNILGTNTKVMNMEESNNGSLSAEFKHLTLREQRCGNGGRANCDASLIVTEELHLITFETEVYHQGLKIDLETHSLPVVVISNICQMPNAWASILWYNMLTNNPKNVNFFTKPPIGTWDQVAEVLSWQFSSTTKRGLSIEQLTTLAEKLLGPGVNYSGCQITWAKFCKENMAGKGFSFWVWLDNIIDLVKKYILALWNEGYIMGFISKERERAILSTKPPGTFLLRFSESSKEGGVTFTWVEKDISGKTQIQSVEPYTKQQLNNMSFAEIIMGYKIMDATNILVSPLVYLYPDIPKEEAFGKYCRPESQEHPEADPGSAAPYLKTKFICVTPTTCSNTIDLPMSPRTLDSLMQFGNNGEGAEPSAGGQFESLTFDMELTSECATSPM

Molecular target: full length Stat3 (SH2 domain) (Homo sapiens, UniProt P40763)
Settings: ref Mandal et al. 2011

In the case of βMpCinn-Leu-Pro-Apa [Compound 17], the IC50 (affinity for Stat3, Table 1) is given as 0.154 ± 0.01 µM and the IC50 (βMpCinn-Leu-Xaa-Apa series, fluorescence polarization) is given as 0.154 ± 0.01 µM.
